The record followed here is ChEMBL document CHEMBL4725236, “Synthesis and pharmacological evaluation of bivalent tethered ligands to target the mGlu heterodimeric receptor results in a compound with mGlu homodimer selectivity” (Bioorg Med Chem Lett, 2020).

The experiment relates to HEK293. Description: Positive allosteric modulation of rat mGlu2/mGlu4 receptor expressed in HEK293 cells coexpressing GIRK assessed as thallium influx by CODA-RET assay relative to glutamate. It is filed as cell-based. Conditions: filed as positive allosteric modulator. The essentials:
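HEK293 cells co-expressing mGlu2, mGlu4 and GIRK channels; thallium flux read-out. Test compound concentration-response in the presence of a fixed EC20 glutamate concentration. Gives EC50, Hill slope and maximal response as % of a saturating glutamate concentration. N=3 experiments, each in triplicate.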

By Emax is commonly meant the greatest response seen or fitted, relative to the assay's reference.

In the case of `COc1cc(NC(=O)c2ccccn2)ccc1NC(=O)c1ccc(NC(=O)COCC(=O)NCCCNC(=O)COc2ccc(-c3cccc(COc4cc5c(c(C)c4C)C(=O)C(C4CCCC4)C5)c3)cc2C(=O)O)cc1Cl` (stereo unspecified), the Emax was 90%.
